Screening results (PubChem BioAssay)
This is a sample that favours compounds with a hit; in the whole collection about 1.3% have one here.
Rango release inh = inhibition of RanGTP-driven Rango-importin beta dissociation | Biochemical FRET Rango-importin beta, RanGTP-induced dissociation | Potency, µM (highest dose often 46.1 µM), for the others: at the highest dose activity change, negative = inhibition | 340,000 compounds, 0.071% hits | AID 540253; note: potency is the fitted concentration of half-maximal effect; % of control where 0% means no effect; nearly all actives have a fitted effect of over 45% in size
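FRET read at 45 min, room temperature: inhibitors block the CFP/YFP signal rise when RanGTP (0.6 uM Ran, 2 mM GTP, 0.2 uM RCC1) frees Rango (0.1 uM) from importin beta (0.25 uM). Pre-read after 5 min compound exposure flags interference.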
KCNH2 3.1 inh = inhibitors of human KCNH2 3.1 potassium channel isoform; activity change, % (tested at about 1.8 µM); AID 720553; U2OS KCNH2 3.1, thallium flux FluxOr; hits give low values; 340,000 compounds, 0.95% hits;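 active = maximum activity change below -70%; inconclusive = maximum activity change from -70% to -50%; inactive = maximum activity change above -50%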;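 note: thallium influx rate constant from kinetic fluorescence after stimulation buffer; % is set by controls: 0 for no effect and ±100 for the full control effect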
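Thallium flux via FluxOr fluorescence (Red40 quencher, 45 min loading) in U2OS cells virally expressing the KCNH2 3.1 isoform (1.77 x 10^8 /mL virus, overnight at 37 C). Rate constants from 2-min kinetic reads post-stimulation, normalised to positive and negative controls.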
Rango complex inh = prevents formation of the Rango-importin beta complex; Q14974; Rango CFP/YFP FRET sensor + importin beta, 45 min; Potency, µM (titrated, usually from 92.2 µM), for inactives: top-dose inhibition of complex formation; 340,000 compounds, 0.031% hits;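 note: potency is the fitted concentration of half-maximal effect; 0% = DMSO wells and 100% = buffer wells lacking importin beta; nearly all actives have a fitted effect of over 15% in size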
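FRET biosensor (snurportin 1 IBB flanked by EYFP and cerulean), 50 nM, with compound 5 min, then 0.125 microM importin beta in PBS, 1 mM DTT, 0.02% Tween-20, 0.1% BSA. CFP/YFP ratio read after 45 min at room temperature; pre-read flags interference.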
hERG WT inh = blocks the wildtype human KCNH2 potassium channel | Q12809 | U2OS, BacMam KCNH2, thallium flux FluxOr; hits give low values | activity change, % at 1.84 µM | 340,000 compounds, 0.37% hits;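 active = maximum activity change below -70%; inconclusive = maximum activity change between -70% and -50%; inactive = maximum activity change above -50%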; note: % is set by controls: 0 for no effect and ±100 for the full control effect
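U2OS cells were transduced with wild-type KCNH2 virus (2.03 x 10^8 / mL) for 4 h at room temperature, then cultured overnight at 37 C. Thallium flux was read with FluxOr dye. Rate constants were normalized to DMSO controls.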
* hit, by the source's call. Unless noted, calls come from the whole dose curve.

For O=c1[nH]c(=O)n(Cc2ccccc2)c2nc(-c3ccc(Oc4ccc(F)cc4)c([N+](=O)[O-])c3)n(CCO)c12 the results were Rango release inh 3.6%, KCNH2 3.1 inh -86.4*, Rango complex inh -2.5% and hERG WT inh -28.2.
For CCCCC(NC(=O)Cc1c(C)c2cc3c4c(oc3cc2oc1=O)CCCC4)C(=O)O (centres undefined) the results were Rango release inh -18.1%, KCNH2 3.1 inh -2.7, Rango complex inh -4.0% and hERG WT inh -150.8*.
`COc1ccccc1COC(=O)C(NC(=O)c1ccc(C)cc1)C(C)C` (centres undefined) gave Rango release inh -3.4%, KCNH2 3.1 inh -6.3, Rango complex inh 0.7% and hERG WT inh -2.3.
Screening CCC(C)NS(=O)(=O)c1ccc(NC(C)=O)cc1 (centres undefined) returned Rango release inh -8.9%, KCNH2 3.1 inh -8.5, Rango complex inh -1.7% and hERG WT inh 15.1.
CC(=O)Nc1ccc(S(=O)(=O)NC(C(=O)O)C(C)C)cc1 (centres undefined) was read as Rango release inh 8.8%, KCNH2 3.1 inh -72.0*, Rango complex inh -4.0% and hERG WT inh -5.1.
Screening Oc1cc(Nc2ccncc2)cc2cccnc12 returned Rango release inh inconclusive and Rango complex inh 41.1µM*.
Oc1cc(Nc2cccnc2)cc2cccnc12 was read as Rango release inh 7.8% and Rango complex inh 2.4%.
Cc1ccc2nc(N3C(=O)C(O)=C(C(=O)c4ccc(C)o4)C3c3ccco3)sc2c1 (centres undefined) was read as Rango release inh inconclusive, KCNH2 3.1 inh 4.4, Rango complex inh inconclusive and hERG WT inh -0.8.
For Cc1cc(N2C(=O)C(O)=C(C(=O)c3ccco3)C2c2cccc(O)c2)no1 (centres undefined) the results were Rango release inh inconclusive, KCNH2 3.1 inh 8.8, Rango complex inh -3.0% and hERG WT inh -3.2.
Cc1cc(C)c2nc(N3C(=O)C(O)=C(C(=O)c4ccco4)C3c3ccc(O)cc3)sc2c1 (centres undefined) was read as Rango release inh 25.9µM*, KCNH2 3.1 inh 25.5, Rango complex inh inconclusive and hERG WT inh 21.5.
`Cc1cc(C)c2nc(N3C(=O)C(O)=C(C(=O)c4ccco4)C3c3cccc(O)c3)sc2c1` (centres undefined) gave Rango release inh 4.11µM*, KCNH2 3.1 inh -5.3, Rango complex inh inconclusive and hERG WT inh 2.4.
Screening O=C(C1=C(O)C(=O)N(c2nc3ccc(Cl)cc3s2)C1c1ccco1)c1ccco1 (centres undefined) returned Rango release inh 16.4µM*, KCNH2 3.1 inh 3.1, Rango complex inh inconclusive and hERG WT inh -7.1.
CCCCN(Cc1nc2ccccc2c(=O)[nH]1)C(=O)CN1C(=O)NC2(CCCCC2)C1=O was read as Rango release inh inconclusive, KCNH2 3.1 inh 4.4, Rango complex inh inconclusive and hERG WT inh 12.4.
Cc1cccc(N2C(=O)C(O)=C(C(=O)c3cccs3)C2c2ccc(C(C)C)cc2)n1 (centres undefined) was read as Rango release inh -7.0%, KCNH2 3.1 inh 0.4, Rango complex inh inconclusive and hERG WT inh -6.8.
Cc1cccc(N2C(=O)C(O)=C(C(=O)c3cccs3)C2c2ccc(F)cc2)n1 (centres undefined) was read as Rango release inh -7.4%, KCNH2 3.1 inh -21.3, Rango complex inh -2.6% and hERG WT inh -226.8*.
O=C(NCCCn1ccnc1)c1ccc(Cl)s1 was read as Rango release inh 2.5%, KCNH2 3.1 inh 10.3, Rango complex inh -0.6% and hERG WT inh -10.1.
CCOc1ccccc1-c1nc(C(N)=O)c2[nH]c(=O)n(-c3ccc(F)cc3)c2n1 was read as Rango release inh -3.0%, KCNH2 3.1 inh -84.0*, Rango complex inh inconclusive and hERG WT inh -11.8.
`Cc1ccc(C)c(OC(=O)CN2C(=O)c3ccccc3C2=O)c1` gave Rango release inh -1.1%, KCNH2 3.1 inh 1.9, Rango complex inh -6.4% and hERG WT inh -93.9*.
For O=C(C1CCN(S(=O)(=O)c2ccc(Cl)cc2)CC1)N1CCN(c2ccccn2)CC1 the results were Rango release inh -2.6%, KCNH2 3.1 inh 7.0, Rango complex inh -0.2% and hERG WT inh 3.8.
For Cc1ccc(CN2C3CCCC2CC(NC(=O)c2ccc(F)cc2)C3)cc1 (centres undefined) the results were Rango release inh -1.6%, KCNH2 3.1 inh -80.2*, Rango complex inh -3.8% and hERG WT inh inconclusive.
Screening O=C(NC1CC2CCCC(C1)N2Cc1ccccc1)c1ccc([N+](=O)[O-])cc1 (centres undefined) returned Rango release inh 12.9%, KCNH2 3.1 inh -80.2*, Rango complex inh -0.8% and hERG WT inh -14.6.
Screening COc1ccc(CN2C3CCC2CC(NC(=O)c2cccc(F)c2)C3)cc1 (centres undefined) returned Rango release inh -8.3%, KCNH2 3.1 inh -84.2*, Rango complex inh 3.0% and hERG WT inh -25.9.
For CCc1c(N)nc(N)nc1Nc1ccccc1C the results were Rango release inh -3.2%, KCNH2 3.1 inh -5.6, Rango complex inh -2.1% and hERG WT inh 1.1.
`COC(=O)c1ccc(CNC(=O)CCNC(=O)c2ccco2)cc1` gave Rango release inh 4.2%, KCNH2 3.1 inh 5.5, Rango complex inh 5.2% and hERG WT inh -4.4.
`CCn1c(Cc2ccccc2)nnc1SCC(=O)Nc1ccc2c(c1)OCO2` gave Rango release inh 2.7%, KCNH2 3.1 inh -28.0, Rango complex inh -1.5% and hERG WT inh 7.2.
C=CCn1c(SCC(=O)Nc2ccc(N3CCOCC3)cc2)nnc1-c1ccncc1 was read as Rango release inh -0.3%, KCNH2 3.1 inh 1.0, Rango complex inh -2.8% and hERG WT inh -1.4.
`CCOC(=O)CSc1nnc(-c2cccs2)n1-c1ccccc1` gave Rango release inh -0.4%, KCNH2 3.1 inh 12.2, Rango complex inh inconclusive and hERG WT inh -3.6.
For CCn1c(SCC(=O)NCc2ccco2)nnc1C(C)C the results were Rango release inh -4.9%, KCNH2 3.1 inh -1.6, Rango complex inh 0.9% and hERG WT inh 3.7.
For CCc1nnc(SCC(=O)Nc2ccc3c(c2)OCO3)n1CC the results were Rango release inh -2.3%, Rango complex inh -0.8% and hERG WT inh -205.4*.
`CCn1c(SCC(=O)NCc2ccco2)nnc1-c1cccs1` gave Rango release inh -0.6%, KCNH2 3.1 inh -74.0*, Rango complex inh 0.8% and hERG WT inh 9.4.
`CCn1c(SCC(=O)Nc2ccc(N3CCOCC3)cc2)nnc1-c1ccncc1` gave Rango release inh -3.0%, KCNH2 3.1 inh -75.7*, Rango complex inh -0.3% and hERG WT inh 5.5.
For O=C(CSc1nnc(-c2cccs2)n1-c1ccccc1)Nc1ccccc1 the results were Rango release inh -1.5%, KCNH2 3.1 inh -88.9*, Rango complex inh inconclusive and hERG WT inh -114.9*.
CC(=O)Nc1nnc([N+](=O)[O-])s1 was read as KCNH2 3.1 inh 2.2 and hERG WT inh -2.4.

Three structures from above, arranged by molar mass, smallest number first:
`CCn1c(SCC(=O)NCc2ccco2)nnc1-c1cccs1` gave Rango release inh -0.6%, KCNH2 3.1 inh -74.0*, Rango complex inh 0.8% and hERG WT inh 9.4.
Screening O=C(NC1CC2CCCC(C1)N2Cc1ccccc1)c1ccc([N+](=O)[O-])cc1 (centres undefined) returned Rango release inh 12.9%, KCNH2 3.1 inh -80.2*, Rango complex inh -0.8% and hERG WT inh -14.6.
`CCn1c(SCC(=O)Nc2ccc(N3CCOCC3)cc2)nnc1-c1ccncc1` gave Rango release inh -3.0%, KCNH2 3.1 inh -75.7*, Rango complex inh -0.3% and hERG WT inh 5.5.
